Data as given in patent US9512126B2, “Substituted imidazopyridazines” (Bayer Intellectual Property GmbH, priority 2012, dated 2016).

Amino acid sequences for entries named in this document (tags omitted). A change or cut given only in a name is not applied to a line headed by its entry.
UniProt P33981: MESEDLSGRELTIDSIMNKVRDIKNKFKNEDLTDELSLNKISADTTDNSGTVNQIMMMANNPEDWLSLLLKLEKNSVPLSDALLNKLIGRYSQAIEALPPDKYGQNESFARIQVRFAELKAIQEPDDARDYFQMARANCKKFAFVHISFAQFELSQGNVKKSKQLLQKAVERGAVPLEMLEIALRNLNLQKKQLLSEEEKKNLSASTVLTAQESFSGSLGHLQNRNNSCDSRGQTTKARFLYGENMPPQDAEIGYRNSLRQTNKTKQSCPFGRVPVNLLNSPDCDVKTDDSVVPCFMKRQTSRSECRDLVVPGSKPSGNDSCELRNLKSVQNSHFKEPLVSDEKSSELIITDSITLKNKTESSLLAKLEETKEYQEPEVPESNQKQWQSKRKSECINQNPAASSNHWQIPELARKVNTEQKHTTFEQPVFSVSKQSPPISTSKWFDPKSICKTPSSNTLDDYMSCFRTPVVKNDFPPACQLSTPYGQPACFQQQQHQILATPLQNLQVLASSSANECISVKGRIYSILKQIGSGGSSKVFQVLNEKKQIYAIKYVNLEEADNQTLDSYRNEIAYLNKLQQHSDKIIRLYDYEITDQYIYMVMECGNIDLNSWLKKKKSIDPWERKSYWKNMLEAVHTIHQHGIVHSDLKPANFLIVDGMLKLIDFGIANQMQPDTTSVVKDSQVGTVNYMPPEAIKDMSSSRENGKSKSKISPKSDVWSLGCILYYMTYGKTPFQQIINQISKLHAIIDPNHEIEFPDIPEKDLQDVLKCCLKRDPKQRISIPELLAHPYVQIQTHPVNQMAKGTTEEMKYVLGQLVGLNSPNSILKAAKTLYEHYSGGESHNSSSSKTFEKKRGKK

Target: human kinase Mps-1 (Homo sapiens (Human), UniProt P33981)
Assay: Mps-1 kinase assay (TR-FRET)
Type: biochemical
Conditions: N-terminally GST-tagged human full length recombinant Mps-1, 10 μM ATP
Protocol: The human kinase Mps-1 phosphorylates a biotinylated substrate peptide. Detection of the phosphorylated product is achieved by time-resolved fluorescence resonance energy transfer (TR-FRET) from Europium-labelled anti-phospho-Serine/Threonine antibody as donor to streptavidin labelled with cross-linked allophycocyanin (SA-XLent) as acceptor. Compounds are tested for their inhibition of the kinase activity.
N-terminally GST-tagged human full length recombinant Mps-1 kinase (purchased from Invitrogen, Karslruhe, Germany, cat. no PV4071) was used. As substrate for the kinase reaction a biotinylated peptide of the amino-acid sequence […] (C-terminus in amide form, purchased from Biosynthan GmbH, Berlin) was used.
The concentration of Mps-1 in the assay was adjusted to the activity of the enzyme lot and was chosen appropriate to have the assay in the linear range, typical enzyme concentrations were in the range of about 1 nM (final conc. in the 5 μl assay volume).
The resulting mixture was incubated 1 h at 22° C. to allow the binding of the phosphorylated peptide to the anti-phospho(Ser/Thr)-Europium-antibody. Subsequently the amount of phosphorylated substrate was evaluated by measurement of the resonance energy transfer from the Europium-labelled anti-phospho(Ser/Thr) antibody to the Streptavidin-XLent.

Row | SMILES | IC50 [nM]
1 | COc1ccc(C(F)(F)c2cc(NCCC(F)(F)F)c3ncc(-c4ccc(C(=O)NC5CC5)c(C)c4)n3n2)cc1 [Example 16, N-Cyclopropyl-4-{6-[difluoro(4-methoxyphenyl)methyl]-8-[(3,3,3-trifluoropropyl)amino]imidazo[1,2-b]pyridazin-3-yl}-2-methylbenzamide] | 0.6
2 | Cc1cc(-c2cnc3c(NCCC(F)(F)F)cc(C4(c5cccc(F)c5F)CC4)nn23)ccc1C(=O)NC1CC1 [Example 17, N-Cyclopropyl-4-{6-[1-(2,3-difluorophenyl)cyclopropyl]-8-[(3,3,3-trifluoropropyl)amino]imidazo[1,2-b]pyridazin-3-yl}-2-methylbenzamide] | 0.7
